Experiments:
[1] = Critical micelle concentration (DPH fluorescence); type: physicochemical; conditions: PAs with FAM and Tamra moved out of FRET overlap range
Experimental: CMC was performed as described in Ref. B67; incorporated by reference in its entirety. A range of PA concentrations (from 512 μM to 0.01 μM in half increments) were prepared in a 1 μM DPH aqueous solution and equilibrated for 1 hour at room temperature. Solutions were plated in triplicates in a black 96-well plate and their fluorescent intensity was measured using Tecan Infinite M200 PRO plate reader (Mannedorf, Switzerland). Data were fit with two trend lines for low and high intensity measurements and CMC was calculated as the inflection point where the two trend lines meet (Ref. B68; incorporated by reference in its entirety).

[2] = Micelle size by dynamic light scattering and TEM; type: physicochemical; conditions: FRET-compatible PAs
Experimental: Micelle size was assessed using dynamic light scattering (DLS, Brookhaven Instruments, Holtzville, N.Y., USA). Stock solutions of 0.5 mM micelles were prepared in water as described above and DLS measurements were performed at 90° angle and 637 nm system consisting of a BI-200SM goniometer and a BI-9000AT autocorrelator. Hydrodynamic radii were determined via the Stokes-Einstein equation using the diffusion coefficient determined from the auto correlation function.
Ultrathin carbon type-A 400 mesh copper grids (Ted Pella, Redding, Calif., USA) were loaded with 5 μL of 0.5 mM PA micelles and allowed to dry. Grids were washed with several drops of water and then negatively stained with 1% aqueous phosphotungstic acid for 3 min. The excess solution was then removed and grids were left to dry. Grids were imaged on a FEI Tecnai 12 TEM using an accelerating voltage of 120 kV.

HeLa cells = test: Extracellular vesicle analysis (Nanosight NTA, red filter); type: cell-based
Experimental: HeLa cells were grown in the T25 with 10% FBS. Cells were washed twice with PBS and incubated with (1) 10 μM diC16-GGG-p53(14-29), (2) 10 μM diC16-VC-PABA-p53(14-29), and (3) media alone for 1 hour in Advanced DMEM supplemented with 1% FBS. This media was then removed and cells were washed twice with PBS. New 10% FBS media was then added on the cells. Following incubation for 6 and 24 hours, 1 mL of media was collected from each of the samples and analyzed using a Nanosight NS300 flow cell (Nanosight, UK) following the manufacturer protocol. Nanoscale particles (10-1000 nm) were analyzed using the NTA software for size distribution and total number of particles per frame. Particles were also tracked using red filters to detect red-laden particles. The ratio of detected red particles per mL to total particle per mL for each sample was then calculated.
To measure extracellular vesicles, HeLa cells were incubated for 1 hour followed by washing and replacement with PA-free media. […] Vesicles within the media were analyzed using a Nanosight N300 with fluorescence filters and nanoparticle tracking analysis (NTA) software was used to determine the number of total and red particles per frame over a threshold of a constant intensity (FIG. 8). […] The number of peptides within each vesicle could not be determined using this technique. […]

| Substance | Critical micelle concentration (CMC) [1] [µM] | DLS second scattering (aggregation) [2] [nm] | Number of red extracellular particles in media compared to diC16-GGG-p53(14-29) (HeLa cells; media collected at 6 hours following incubation) | Number of red (p53(14-29)-containing) extracellular vesicles relative to cells incubated with diC16-VC-PABA-p53(14-29) (HeLa cells; 10 μM PA for 1 hour, media analysed) [×] |
| --- | --- | --- | --- | --- |
| diC16-VC-PABA-p53(14-29): cleavable p53(14-29) peptide amphiphile: diC16 hydrophobic tail, VC-PABA catB-cleavable linker, FAM and Tamra fluorophores | 4.7 | 150 | less |  |
| diC16-GGG-p53(14-29): non-cleavable control p53(14-29) peptide amphiphile: diC16 hydrophobic tail, GGG linker, FAM and Tamra fluorophores | 5.8 | 200 |  | 4.28 |

Source: patent US20180066031A1, “ENZYMATICALLY-CLEAVABLE PEPTIDE AMPHIPHILES” (The University of Chicago, priority 2016, published 2018)
